Source: PMC4546552 (ACS chemical biology, 2015)

Biological target: T1, rat NAAA (r-NAAA) (Rattus norvegicus, UniProt Q5KTC7)
T1 sequence (Q5KTC7 131-362 limits assumed): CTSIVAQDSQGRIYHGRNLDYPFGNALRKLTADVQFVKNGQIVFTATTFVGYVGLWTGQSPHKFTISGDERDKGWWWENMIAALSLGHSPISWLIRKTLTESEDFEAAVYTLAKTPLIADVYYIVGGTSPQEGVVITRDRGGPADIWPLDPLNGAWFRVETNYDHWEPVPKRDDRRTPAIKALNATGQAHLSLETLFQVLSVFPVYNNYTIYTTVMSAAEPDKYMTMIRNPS
T1 sequence (Q5KTC7 34-130 limits assumed): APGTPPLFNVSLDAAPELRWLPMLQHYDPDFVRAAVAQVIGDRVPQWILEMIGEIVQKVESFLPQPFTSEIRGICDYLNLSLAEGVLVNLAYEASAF
Assay: Rat NAAA activity inhibition
Type: biochemical

Row | SMILES | IC50
1 | O=C(N[C@H]1CNC1=O)OCCCCC1CCCCC1 [Compound 6, 4-Cyclohexylbutyl-N-[(S)-2-oxoazetidin-3-yl]carbamate] | 63 ± 15 nM
2 | O=C(N[C@@H]1CNC1=O)OCCCCC1CCCCC1 [Compound 7, 4-Cyclohexylbutyl-N-[(R)-2-oxoazetidin-3-yl]carbamate] | ~3100 nM
